Measured values: patent US20230382889A1 (Volastra Therapeutics, Inc., priority 2022, published 2023)

Sequences of proteins named here, by UniProt entry; tags and fusion partners are left off. Residues count along the entry.
UniProt Q8NI77, 1-374 limits assumed: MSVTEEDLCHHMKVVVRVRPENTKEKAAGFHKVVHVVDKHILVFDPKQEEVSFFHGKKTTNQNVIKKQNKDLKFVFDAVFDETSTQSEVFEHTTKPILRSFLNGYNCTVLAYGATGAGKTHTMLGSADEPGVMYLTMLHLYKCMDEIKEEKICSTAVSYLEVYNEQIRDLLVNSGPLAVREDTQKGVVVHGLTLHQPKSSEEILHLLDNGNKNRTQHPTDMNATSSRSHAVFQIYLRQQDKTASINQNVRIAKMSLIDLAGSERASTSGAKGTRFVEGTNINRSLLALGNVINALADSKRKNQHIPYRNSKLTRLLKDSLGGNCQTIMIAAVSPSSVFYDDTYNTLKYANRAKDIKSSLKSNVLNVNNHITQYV

Target: hKIF18A (1-374) (Homo sapiens (Human), UniProt Q8NI77)
Experiment: Inhibition of KIF18A microtubule-dependent ATPase activity (ADP-Glo)
Format: biochemical
Details: 4 nM hKIF18A (1-374)

SMILES | IC50 [nM]
Cc1cc(-n2cc(-c3ccc(NS(=O)(=O)CCO)cc3N3CCC4(CC3)CC4)nn2)nc(N2C[C@@H]3C[C@H]2CO3)n1 | 11
Cc1cc(-n2cc(-c3ccc(NS(=O)(=O)CCO)cc3N3CCC4(CC3)CC4)nn2)nc(N2C[C@H]3C[C@@H]2CO3)n1 | 43
